According to patent publication EP4635500A1, “THERAPEUTIC AGENT FOR BACTERIAL INFECTION” (Sumitomo Pharma Co., Ltd., priority 2022, dated 2024):

How the values were obtained:
[1] = Plasma PK of Compound A after single intravenous dose (Example 21, Table 37); type: in vivo, rat; conditions: Rats (n = 3); 5 mg/kg intravenous single dose
[2] = as above; type: in vivo, dog; conditions: Dogs (n = 2); 1 mg/kg intravenous single dose
[3] = as above; type: in vivo, monkey; conditions: Monkeys (n = 2); 1 mg/kg intravenous single dose
[4] = PK prediction in a clinical setting by allometric scaling (Example 23); design: species or system human; conditions: allometric scaling from rat, dog, monkey
[5] = Preliminary population PK analysis of Phase I data, 2-compartment model (Example 28, Table 38); design: species or system human; conditions: interindividual variability
[6] = Phase 1 study pharmacokinetics, 3-hour intravenous infusion (Example 31, Tables 39-42); type: in vivo, human; conditions: average (standard deviation)
[7] = Phase 1 study safety and tolerability (Example 32); type: in vivo, human
[8] = Population PK analysis of Phase I data, 2-compartment model (Example 33, Table 43); design: species or system human
[9] = population PK, 2-compartment model

Structure (SMILES): N[C@@H](C(=O)N1CC(Oc2ccc3c(c2C(=O)O)OB(O)CC3)C1)c1c[nH]cn1
- CL [1]: 0.384 ± 0.102 L/h/kg
- Vss [1]: 0.380 ± 0.011 L/kg
- AUC0-∞ [2]: 6.59 µg·h/mL
- CL [2]: 0.153 L/h/kg
- AUC0-∞ [3]: 7.19 µg·h/mL
- C0 [3]: 11.4 µg/mL
- Vss [3]: 0.193 L/kg
- CL (predicted) [4]: 0.620 mL/min/kg
- Vss (predicted) [4]: 0.116 L/kg
- IIV CL, Coefficient of variation % (Shrinkage %) [5]: 22.6(0.0395) %
- IIV Q, Coefficient of variation % (Shrinkage %) [5]: 37.0(19.6) %
- AUC0-tau ([6]; 500 mg every 8 hours in combination with 2 g/dose of meropenem, day 5): 143 (61.5) µg·h/mL
- AUC0-tau ([6]; 500 mg every 8 hours, day 5 of repeated administration): 99.2 (14. 9) µg·h/mL
- AUC0-tau ([6]; 1000 mg every 8 hours, day 5 of repeated administration): 243 (53.7) µg·h/mL
- AUC0-tau ([6]; 1500 mg every 8 hours in combination with 2 g/dose of meropenem, day 5): 547 (87.5) µg·h/mL
- AUC0-tau ([6]; 1500 mg every 8 hours, day 5 of repeated administration): 463 (96.0) µg·h/mL
- T1/2 ([6]; Japanese, single dose 250 mg): 2.77(0.659) 1/h
- T1/2 ([6]; Japanese, single dose 750 mg): 3.40(0.291) 1/h
- T1/2 ([6]; Japanese, single dose 1500 mg): 4.27(0.82) 1/h
- T1/2 ([6]; single dose 50 mg): 2.66 (0.361) 1/h
- T1/2 ([6]; single dose 125 mg): 3.51 (0.989) 1/h
- T1/2 ([6]; single dose 250 mg): 3.87 (0.268) 1/h
- T1/2 ([6]; single dose 750 mg): 3.49 (0.303) 1/h
- T1/2 ([6]; single dose 1500 mg): 4.05 (0.918) 1/h
- T1/2 ([6]; single dose 2000 mg): 4.83 (1.13) 1/h
- safety and tolerability ([7]; 50 mg to 1500 mg, intravenous infusion for 3 hours every 8 hours for 5 days): safe and tolerated
- safety and tolerability ([7]; 50 mg to 2000 mg, intravenous infusion for 3 hours): safe and tolerated
- θSex on Vc, Estimated value (95% confidence interval) ([8]; 0 for male): -0.114 (-0.192, -0.0434) ;
- θBW on CL, Estimated value (95% confidence interval) ([8]; covariate exponent, BW/75.2): 0.561 (0.299, 0.810)
- θBW on Q, Estimated value (95% confidence interval) ([8]; covariate exponent, BW/75.2): 1.37 (0.948, 1.69)
- θBW on Vc, Estimated value (95% confidence interval) ([8]; covariate exponent, BW/75.2): 0.455 (0.270, 0.658)
- θBW on Vp, Estimated value (95% confidence interval) ([8]; covariate exponent, BW/75.2): 1.37 (0.948, 1.69)
- ωCL^2, Coefficient of variation ([8]; interindividual variability): 18.1%
- ωCL^2, Estimated value (95% confidence interval) ([8]; interindividual variability): 0.0323 (0.0223, 0.0391)
- ωVc^2, Coefficient of variation ([8]; interindividual variability): 14.6%
- ωVp^2, Coefficient of variation ([8]; interindividual variability): 52.1%
- σ^2, Coefficient of variation ([8]; intraindividual variability): 9.13%
- σ^2, Estimated value (95% confidence interval) ([8]; intraindividual variability): 0.00831 (0.00676, 0.0111)
- Q θQ, Estimated value (95% confidence interval) [8, 9]: 1.08 (0.953, 1.17) L/h
- Vc θVc, Estimated value (95% confidence interval) [8, 9]: 11.0 (10.6, 11.6) L
- Vp θVp, Estimated value (95% confidence interval) [8, 9]: 4.12 (3.70, 4.61) L
